Among the data in ChEMBL document CHEMBL5360652, “Drug Discovery Targeting Nuclear Receptor Binding SET Domain Protein 2 (NSD2)” (J Med Chem, 2023) are Kd values, retold here.

What is called Kd is the free concentration of one partner at which half of the binding sites on the other are occupied at equilibrium, for simple one-to-one binding.

This experiment addresses T1, Histone-lysine N-methyltransferase NSD3 (Homo sapiens, UniProt Q9BZ95).
T1 sequence (Q9BZ95 whole entry): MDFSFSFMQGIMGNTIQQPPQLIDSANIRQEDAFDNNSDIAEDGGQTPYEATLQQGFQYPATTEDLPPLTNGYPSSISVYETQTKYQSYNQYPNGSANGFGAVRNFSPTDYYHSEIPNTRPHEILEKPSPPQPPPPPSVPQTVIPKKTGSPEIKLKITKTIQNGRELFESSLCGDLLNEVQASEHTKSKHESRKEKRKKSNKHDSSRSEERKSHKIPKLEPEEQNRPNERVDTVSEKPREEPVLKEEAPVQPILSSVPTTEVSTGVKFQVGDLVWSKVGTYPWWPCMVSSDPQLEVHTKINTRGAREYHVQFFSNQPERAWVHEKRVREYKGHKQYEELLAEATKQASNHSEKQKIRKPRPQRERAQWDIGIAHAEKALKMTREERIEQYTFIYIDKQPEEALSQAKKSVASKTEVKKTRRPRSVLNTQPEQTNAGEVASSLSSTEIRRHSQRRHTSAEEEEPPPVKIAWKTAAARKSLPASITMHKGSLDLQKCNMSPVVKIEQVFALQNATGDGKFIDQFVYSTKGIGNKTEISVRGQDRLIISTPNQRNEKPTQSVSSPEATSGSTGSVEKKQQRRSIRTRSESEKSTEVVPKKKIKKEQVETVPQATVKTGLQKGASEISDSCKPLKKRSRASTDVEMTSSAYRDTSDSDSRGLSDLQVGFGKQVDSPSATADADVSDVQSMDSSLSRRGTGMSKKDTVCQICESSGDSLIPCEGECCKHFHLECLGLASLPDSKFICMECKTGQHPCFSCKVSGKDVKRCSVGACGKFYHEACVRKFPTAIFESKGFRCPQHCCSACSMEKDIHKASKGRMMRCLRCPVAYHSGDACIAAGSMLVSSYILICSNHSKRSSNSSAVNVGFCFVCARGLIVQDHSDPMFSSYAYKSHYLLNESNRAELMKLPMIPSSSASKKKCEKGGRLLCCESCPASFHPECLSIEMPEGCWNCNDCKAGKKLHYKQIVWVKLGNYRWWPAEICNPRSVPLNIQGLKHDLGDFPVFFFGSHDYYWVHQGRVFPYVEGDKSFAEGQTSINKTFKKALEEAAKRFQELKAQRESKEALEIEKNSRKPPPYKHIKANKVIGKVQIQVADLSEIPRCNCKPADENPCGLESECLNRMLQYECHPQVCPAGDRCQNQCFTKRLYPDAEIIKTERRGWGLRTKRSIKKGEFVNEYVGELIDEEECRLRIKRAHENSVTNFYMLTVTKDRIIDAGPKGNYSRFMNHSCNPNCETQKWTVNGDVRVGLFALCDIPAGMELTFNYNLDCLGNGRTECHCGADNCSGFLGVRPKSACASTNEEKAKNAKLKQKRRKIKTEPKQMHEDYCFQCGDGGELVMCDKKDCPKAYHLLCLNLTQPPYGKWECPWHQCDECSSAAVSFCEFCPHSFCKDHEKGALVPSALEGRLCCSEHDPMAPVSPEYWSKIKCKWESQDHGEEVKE
Briefly: Binding affinity to human recombinant NSD3 PWWP1 domain assessed as dissociation constant.

Turning to `Cc1cc(CN)cc(C)c1-c1ncn(C)c1-c1ccnc2cc(F)ccc12`, the Kd stood at 1700 nM.
